{"source": "paper PMC2263054", "about": "“Functional evolution of the vitamin D and pregnane X receptors” (BMC Evolutionary Biology, 2007)", "conditions_in_all_cases": "screening for activators, at least three concentrations of each drug", "key": {"[1]": {"molecular_target": "T1, Zebrafish VDR (Danio rerio, UniProt Q9PTN2)", "T1 sequence (Q9PTN2 121-453)": "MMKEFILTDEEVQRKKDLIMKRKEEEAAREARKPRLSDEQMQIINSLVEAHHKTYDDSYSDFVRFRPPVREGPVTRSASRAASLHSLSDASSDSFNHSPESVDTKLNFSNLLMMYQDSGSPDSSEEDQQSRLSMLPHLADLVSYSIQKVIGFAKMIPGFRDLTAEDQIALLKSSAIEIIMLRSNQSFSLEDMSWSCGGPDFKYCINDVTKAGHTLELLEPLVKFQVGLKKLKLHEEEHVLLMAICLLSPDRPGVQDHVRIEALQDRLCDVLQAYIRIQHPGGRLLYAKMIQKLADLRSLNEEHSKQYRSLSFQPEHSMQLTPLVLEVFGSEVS", "experiment": "luciferase reporter transactivation assay in HepG2-NTCP cells, GAL4/zfVDR LBD chimera with tk-UAS-Luc", "format": "cell-based"}, "[2]": {"molecular_target": "T2, Xenopus laevis VDR (Xenopus laevis, UniProt O13124)", "T2 sequence (O13124 90-422)": "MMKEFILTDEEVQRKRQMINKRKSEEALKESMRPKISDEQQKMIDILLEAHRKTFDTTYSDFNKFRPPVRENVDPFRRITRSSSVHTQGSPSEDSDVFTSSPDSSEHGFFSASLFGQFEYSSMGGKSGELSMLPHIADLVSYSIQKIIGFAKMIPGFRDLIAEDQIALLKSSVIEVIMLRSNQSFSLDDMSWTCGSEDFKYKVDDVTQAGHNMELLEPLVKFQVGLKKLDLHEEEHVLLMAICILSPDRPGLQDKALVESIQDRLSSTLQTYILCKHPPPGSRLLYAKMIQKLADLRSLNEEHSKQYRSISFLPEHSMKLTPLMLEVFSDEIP", "experiment": "luciferase reporter transactivation assay in HepG2-NTCP cells, GAL4/xlVDR LBD chimera with tk-UAS-Luc", "format": "cell-based"}, "[3]": {"molecular_target": "T3, Sea lamprey VDR (Petromyzon marinus, UniProt Q7ZZY9)", "T3 sequence (Q7ZZY9 92-406)": "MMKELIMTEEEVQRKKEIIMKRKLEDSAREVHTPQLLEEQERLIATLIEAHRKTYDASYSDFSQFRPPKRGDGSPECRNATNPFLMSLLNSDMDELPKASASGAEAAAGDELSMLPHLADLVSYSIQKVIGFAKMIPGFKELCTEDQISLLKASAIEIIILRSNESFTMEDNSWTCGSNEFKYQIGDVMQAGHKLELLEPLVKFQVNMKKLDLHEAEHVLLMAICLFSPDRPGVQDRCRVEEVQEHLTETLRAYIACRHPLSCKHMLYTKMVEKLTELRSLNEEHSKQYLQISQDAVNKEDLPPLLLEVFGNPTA"}}, "data": [{"smiles": "CCCCC[C@H](O)/C=C/[C@@H]1[C@H]2C/C(=C/CCCC(=O)O)C[C@H]2C[C@H]1O", "note": "[Carbacyclin]", "values": [{"measurement": "Effect on zebrafish VDR", "setting": "[1]", "value": "No effect"}, {"measurement": "Effect on Xenopus laevis VDR", "setting": "[2]", "value": "No effect"}, {"measurement": "Effect on sea lamprey VDR", "setting": "[3]", "value": "No effect"}]}, {"smiles": "CC#C[C@]1(O)CC[C@H]2[C@@H]3CCC4=CC(=O)CCC4=C3[C@@H](c3ccc(N(C)C)cc3)C[C@@]21C", "note": "[Mifepristone]", "values": [{"measurement": "Effect on zebrafish VDR", "setting": "[1]", "value": "No effect"}]}]}
